How the values were obtained:
Homo sapiens [1] = species: Homo sapiens; assay: Selectivity ratio of Ki(app) for recombinant human GST-tagged mTOR catalytic domain (1360 to 2549 residues) expressed in baculovirus expression system to Ki(app) for full-length human P110alpha (1 to 1068 residues)/N-terminal GST-fused p85alpha (1 to 724 residues) expressed in baculovirus expression system
Homo sapiens [2] = species: Homo sapiens; assay: Selectivity ratio of Ki(app) for p110beta/85alpha (unknown origin) to Ki(app) for full-length human P110alpha (1 to 1068 residues)/N-terminal GST-fused p85alpha (1 to 724 residues) expressed in baculovirus expression system
Homo sapiens [3] = species: Homo sapiens; assay: (§1) Selectivity ratio of Ki(app) for recombinant human full-length N-terminal His6-tagged p110delta/human full-length p85alpha expressed in baculovirus infected Sf21 insect cells to Ki(app) for full-length human P110alpha (1 to 1068 residues)/N-terminal GST-fused p85alpha (1 to 724 residues) expressed in baculovirus expression system
Homo sapiens [4] = species: Homo sapiens; assay: as §1, with “recombinant full-length” for “recombinant”, “human” for “human full-length”, “p110gamma” for “p110delta/human full-length p85alpha”

CS(=O)(=O)N1CCN(Cc2cc3c(N4CCOCC4)nc(-c4cnc(N)nc4)cn3n2)CC1
Ratio Ki(app) (Homo sapiens [1]): 1720
Ratio Ki(app) (Homo sapiens [2]): 49.7
Ratio Ki(app) (Homo sapiens [3]): 7.2
Ratio Ki(app) (Homo sapiens [4]): 49.6

CS(=O)(=O)N1CCN(Cc2cn3nc(-c4cnc(N)nc4)nc(N4CCOCC4)c3n2)CC1
Ratio Ki(app) (Homo sapiens [1]): 1210
Ratio Ki(app) (Homo sapiens [2]): 255
Ratio Ki(app) (Homo sapiens [3]): 11.8
Ratio Ki(app) (Homo sapiens [4]): 26.7

CS(=O)(=O)N1CCN(Cc2nc3c(N4CCOCC4)nc(-c4cnc(N)nc4)c(Cl)n3n2)CC1
Ratio Ki(app) (Homo sapiens [1]): 1480
Ratio Ki(app) (Homo sapiens [2]): 51.8
Ratio Ki(app) (Homo sapiens [3]): 0.6
Ratio Ki(app) (Homo sapiens [4]): 7.7

CS(=O)(=O)N1CCN(Cc2cc3c(N4CCOCC4)nc(-c4cnc(N)nc4)c(Cl)n3n2)CC1
Ratio Ki(app) (Homo sapiens [1]): 2580
Ratio Ki(app) (Homo sapiens [2]): 33.4
Ratio Ki(app) (Homo sapiens [3]): 3.9
Ratio Ki(app) (Homo sapiens [4]): 7.8

CS(=O)(=O)N1CCN(Cc2nc3c(N4CCOCC4)nc(-c4cnc(N)nc4)cn3n2)CC1
Ratio Ki(app) (Homo sapiens [1]): 1260
Ratio Ki(app) (Homo sapiens [2]): 155
Ratio Ki(app) (Homo sapiens [3]): 6.3
Ratio Ki(app) (Homo sapiens [4]): 20.7

Source: ChEMBL document CHEMBL4177600, “Identification of novel PI3K inhibitors through a scaffold hopping strategy” (Bioorg Med Chem Lett, 2017)
